IC50 data for three molecules are collected here from patent publication US9216984B2, “3-[4-(7H-pyrrolo[2,3-D]pyrimidin-4-yl)-1H-pyrazol-1-yl]octane—or heptane-nitrile as JAK inhibitors” (Incyte Corporation, priority 2009, dated 2015).

By UniProt entry, the sequences of proteins in these tests, tags left out. Residues count along the entry.
UniProt O60674, 828-1132: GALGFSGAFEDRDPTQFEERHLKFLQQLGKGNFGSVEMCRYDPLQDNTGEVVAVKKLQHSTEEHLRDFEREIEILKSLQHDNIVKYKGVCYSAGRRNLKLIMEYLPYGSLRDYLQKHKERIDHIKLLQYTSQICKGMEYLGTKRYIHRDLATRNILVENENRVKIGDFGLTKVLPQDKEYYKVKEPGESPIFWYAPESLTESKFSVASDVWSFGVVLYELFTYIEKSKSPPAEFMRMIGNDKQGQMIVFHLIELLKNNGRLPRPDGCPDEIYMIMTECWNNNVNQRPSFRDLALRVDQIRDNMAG

By IC50 is commonly meant the concentration that gives 50% inhibition.

Experiment [1] has as its target human JAK2 (a.a. 828-1132) (Homo sapiens (Human), UniProt O60674). In words: In vitro JAK kinase assay (HTRF, phosphorylation of biotinylated peptide). The format is biochemical. Here is the method:
(§1) The compounds of the invention were tested for inhibitory activity of JAK targets according to the following in vitro assay described in Park et al., Analytical Biochemistry 1999, 269, 94-104. The catalytic domains of human JAK1 (a.a. 837-1142), JAK2 (a.a. 828-1132) and JAK3 (a.a. 781-1124) with an N-terminal His tag were expressed using baculovirus in insect cells and purified. The catalytic activity of JAK1, JAK2 or JAK3 was assayed by measuring the phosphorylation of a biotinylated peptide. The phosphorylated peptide was detected by homogenous time resolved fluorescence (HTRF). IC50 was measured for each kinase in the 40 μL reactions that contain the enzyme, ATP and 500 nM peptide in 50 mM Tris (pH 7.8) buffer with 100 mM NaCl, 5 mM DTT, and 0.1 mg/mL (0.01%) BSA. The ATP concentration in the reactions was 90 μM for Jak1, 30 μM for Jak2 and 3 μM for Jak3. Reactions were carried out at room temperature for 1 hr and then stopped with 20 μL 45 mM EDTA, 300 nM SA-APC, 6 nM Eu-Py20 in assay buffer (Perkin Elmer, Boston, Mass.). Binding to the Europium labeled antibody took place for 40 minutes and HTRF signal was measured on a Fusion plate reader (Perkin Elmer, Boston, Mass.).
A general note: In TR-FRET formats the signal depends on donor and acceptor labels being close together.

Experiment [2] addresses human JAK1 (a.a. 837-1142) (Homo sapiens, UniProt P23458). The description is as above. The following applies: at Km ATP (90 μM ATP for Jak1). Type of experiment: biochemical. Here is the method:
as §1

Setting [3] is: at Km ATP (30 μM ATP for Jak2), read-out: JAK2 IC50 (nM) at Km ATP.

Read-outs that look alike come from different tables or passages of the source. A value given as a limit tells only on which side of the number the result lay.

For the molecule `CCCCCC(CC#N)n1cc(-c2ncnc3[nH]ccc23)cn1` (single isomer, unassigned) [Example 1, first peak (free base), 3-[4-(7H-pyrrolo[2,3-d]pyrimidin-4-yl)-1H-pyrazol-1-yl]octanenitrile], the figures for the IC50 in experiment [1] (setting [3]) and in experiment [2] were 2.2 nM and 3.9 nM, respectively.
As to `CCCCCC(CC#N)n1cc(-c2ncnc3[nH]ccc23)cn1` (single isomer, unassigned) [Example 1, second peak (free base), 3-[4-(7H-pyrrolo[2,3-d]pyrimidin-4-yl)-1H-pyrazol-1-yl]octanenitrile], the IC50 is 0.26 nM in experiment [1] (setting [3]), less than 10 nM in experiment [1] (read-out: IC50 value for JAK2) and 0.34 nM in experiment [2].
Consider `CCCCCC(CC#N)n1cc(-c2ncnc3[nH]ccc23)cn1.O=P(O)(O)O` (single isomer, unassigned) [Example 1, second peak (phosphate salt), 3-[4-(7H-pyrrolo[2,3-d]pyrimidin-4-yl)-1H-pyrazol-1-yl]octanenitrile phosphoric acid salt], for which the IC50 in experiment [1] (setting [3]) amounted to 0.29 nM; in experiment [2], 0.63 nM.
